Results taken from patent publication US9284283B2, “Macrocyclic compounds for modulating IL-17” (ENSEMBLE THERAPEUTICS CORPORATION, priority 2012, dated 2016).

Sequences of proteins named here, by UniProt entry; tags and fusion partners are left off. Residues count along the entry.
UniProt Q16552, 20-155 limits assumed: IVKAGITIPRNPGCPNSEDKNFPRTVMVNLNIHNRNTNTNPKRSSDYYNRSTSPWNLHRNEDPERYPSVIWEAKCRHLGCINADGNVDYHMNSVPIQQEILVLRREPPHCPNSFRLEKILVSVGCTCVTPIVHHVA

How the values were obtained:
[1] = target: recombinant human IL17a (binding to its receptor IL17R) (Homo sapiens, UniProt Q16552); assay: IL-17 competition ELISA I (IL17a coated, IL17R/Fc binding); details: read-out: ELISA I
Description: ELISA I: The ability of the compounds to block binding of IL17a to its receptor, IL17R, was analyzed in a competition ELISA format. High binding 96-well plates (Costar #9018) were coated with 20 nM of recombinant human IL17a (R&D Systems #317-ILB) in PBS (0.64 μg/mL), 100 μL/well, for 30 min at 37′C followed by 5 min at 4′C. Plates were then washed in PBST (PBS/0.05% Tween-20) on a plate washer, (Biotech EL-450) blocked with protein-free blocking buffer (Thermo Scientific #37573) in 250 μL/well for 30 min on shaker at room temperature, and then washed again. Compound dilutions prepared in PBST were added into the wells in duplicates followed by the addition of IL17R/Fc (R&D Systems #177-IR) at a final concentration of 12 nM. Plates were then incubated for 30 min at room temperature on the shaker. Wells with no compound served as a positive “no competitor” control, while wells with no IL17R/Fc and no compound served as a blank negative control. After an additional PBST wash, 50 ng/mL HRP-conjugated goat anti-human Fc IgG (KPL #04-10-20) was added to the plate for 30 min at room temperature, followed by PBST wash and addition of SureBlue™ TMB (KPL #52-00-03). After the sufficient color development, the reaction was fixed by the addition of 100 μL/well 0.5 N HCl and absorbance was measured at 450 nm on Biotek plate reader.
(§1) Data were processed using BioAssay Enterprise v10.1.4 (CambridgeSoft) software. Linear OD λ450 were plotted against log concentration (x) and fitted to a 4-parameter logistic equation. IC50 was calculated using positive ‘no competitor’ control data as an upper limit and blank control as a lower limit in each assay.

[2] = target: biotinylated human IL-17 (binding to IL17R/Fc) (Homo sapiens, UniProt Q16552); assay: IL-17 competition ELISA II (captured IL17R/Fc, biotinylated IL-17); details: read-out: ELISA II
Description: In this version, a high binding 96-well plate (Costar #9018) was coated with 20 nM of goat anti-human IgG (KPL 01-10-02) in PBS, 100 μL/well, for 30 min at 37° C. followed by 5 min at 4° C. The plate was then washed in PBST (PBS/0.05% Tween-20) on a plate washer, (BioTek ELx450) then blocked with protein-free blocking buffer (Thermo Scientific #37573) in 250 μL/well for 30 min on a shaker at room temperature, and then washed again. IL17R/Fc (R&D Systems #177-IR; 10 nM in PBST, 100 μL/well) was then added to all wells. The plate was then incubated for 30 minutes at room temperature on the shaker.
While the receptor capture step was underway, compound dilutions were prepared in PBST to a concentration of 1 μM in 1.5 mL tubes. After the receptor capture step, the plate was washed and 50 μL PBST was added to the wells in row B down to row H. Then, 62.5 μL of the 1 μM compound dilutions were added to the wells of row A. From row A, 12.5 μL of the compound solution was removed and added to row B with mixing and this process of 5-fold dilutions was continued, by row, to row G. One of the wells in row A received only PBST (62.5 μL) and this dilution series served as the no competitor control. Then, going up from row G to row A, 50 μL of b-IL-17 (biotinylated human IL-17, R&D Systems #317-ILB; 20 nM) was added to all wells. Row H received 50 μL of PBST and served as the blank row, i.e., no compound and no b-IL-17. The plate was then incubated for 30 minutes at room temperature on the shaker.
After the wash, 100 μL Streptavidin-Horseradish Peroxidase (SA-HRP) (KPL #14-30-00) at 25 ng/mL in PBST was added to each well in the plate and the plate incubated for 30 minutes at room temperature followed by wash and 100 μL SureBlue™ TMB (KPL #52-00-03). After sufficient color development (approx 3-6 minutes), the reaction was fixed by the addition of 100 μL/well 0.5 N HCl and absorbance was measured at 450 nm on a BioTek Synergy 2 plate reader. The absorbances of ‘no competitor’ control and blank control should not exceed 1.5 A.U. and 0.06 A.U., respectively.
as §1, with “Data was” for “Data were”

DNFB-treated BALB/c mice = assay: Murine model of delayed hypersensitivity (DNFB-induced ear edema)
Description: We used a murine model of fluorodinitrobenzene (DNFB)-induced ear edema to test the anti-inflammatory activity of both orally dosed and intraperitoneally dosed exemplary compounds of the invention. BALB/c mice (Harlan Sprague-Dawley, Inc., male, 6-8 weeks old) were topically treated on their shaved abdomen with 30 μL of 0.5% 1-fluoro-2,4-dinitrobenzene (DNFB) (4:1 acetone:olive oil) once on Day 0 and once on Day 1.
For oral dosing (“PO”), exemplary compounds of the invention were either suspended at 3 mg/mL in 20% Cremophor EL (Sigma) (20:80; Cremophor:water) or dissolved at 1 mg/mL or 3 mg/mL in D-α-tocopherol polyethylene glycol 1000 succinate (TPGS; Sigma)/PEG-400/water (20:60:20). For intraperitoneal dosing (“IP”), exemplary compounds of the invention were dissolved in DMSO at a concentration of 5 mg/mL. On day 7, the test compound was administered (PO at either 10 mg/kg or 30 mg/kg; IP at 1, 3, or 10 mg/kg) to DNFB-treated mice. Commercially available anti-mouse IL-17A (BioLegend) administered intraperitoneally at 5 mg/kg in PBS was used as a positive control. Thirty minutes later, 20 μL of 0.2% DNFB was applied to the right ear of animals and vehicle ([…]:olive oil) was applied to the left ear. One and four hours after DNFB challenge, a subset of mice was exsanguinated and plasma prepared from the blood. Twenty-four hours after challenge, the remaining mice were euthanized, and their ears were removed and weighed to determine the amount of edema. Plasma was assayed for interleukin-6, TNF-α, CXCL1, and interferon-γ concentrations using commercially-available assays.

IC50 [1]: < 100 nM
IC50 [2]: < 100 nM
SMILES: O=C1CNC(=O)[C@@H](Cc2ccc(NC(=O)[C@H](Cc3ccccc3Cl)NC(=O)Cc3ccccc3)cc2)NC(=O)CC2(CCCC2)CC(=O)N[C@H](C(=O)O)CCCCN1
reduction in TNF-α, IFN-γ and edema as compared to a PBS control or DMSO control (DNFB-treated BALB/c mice; i.p. 10 mg/kg, FIG. 1): statistically significant reduction
Reduction in edema (%) (DNFB-treated BALB/c mice; ip, 10 mg/kg, ear weight 24 h after DNFB challenge): 50.1%
IFNγ Reduction (%) (DNFB-treated BALB/c mice; ip, 10 mg/kg, plasma): 38.9%
TNFα Reduction (%) (DNFB-treated BALB/c mice; ip, 10 mg/kg, plasma): 25.5%
